Laboratory results from US11236047B2 (ASTEX THERAPEUTICS LIMITED, priority 2017, dated 2022).

What was measured:
[1] = test system: SJSA-1 cells (p53 wild-type, MDM2 amplified osteosarcoma); assay: Protocol A: SJSA-1 growth inhibition (sulphorhodamine B); settings: Homo sapiens
SJSA-1 cells = assay: Protocol B: SJSA-1 CellTiter-Glo luminescent cell viability assay; settings: for pIC50: read-out: SJSA1 IC50, Protocol B, SJSA-1; for IC50: Homo sapiens

Structure (SMILES): CCC(O)(c1cc(F)c2c(c1)C(=O)N(Cc1ccc(C#N)cn1)[C@@]2(O[C@H]1CCOC1)c1ccc(Cl)cc1)C1(F)CCOCC1 (stereo partly drawn)
IC50 ([1]; SJSA-1, read-out: SJSA-1 IC50 (μM)): 0.018 µM

Structure (SMILES): CCC(O)(CN1CCN(C)CC1)c1cc(F)c2c(c1)C(=O)N(Cc1ncc(Cl)cn1)[C@@]2(O[C@H]1CCOC1)c1ccc(Cl)cc1 (single isomer, unassigned) [Example 523]
pIC50 (SJSA-1 cells): 5.82

Structure (SMILES): CCC(O)(c1cc(F)c2c(c1)C(=O)N(Cc1ccc(C#N)cn1)[C@@]2(O[C@H]1CCOC1)c1ccc(Cl)cc1)C1(F)CCOCC1 (stereo partly drawn) [445]
pIC50 (SJSA-1 cells): 5.48

IC50 ([1]; SJSA-1, 72 h, read-out: SJSA-1 IC50 (μM) (Protocol A), Protocol A, SRB, 72 hrs): 0.33 µM | IC50 (SJSA-1 cells; SJSA-1, 72 h, read-out: SJSA1 IC50 (μM) (Protocol B), Protocol B, CellTiter-Glo, 72 hrs): 0.46 µM
Structure (SMILES): CC(C)(O)c1cc(F)c2c(c1)C(=O)N(Cc1ccc(Cl)cc1)[C@@]2(OCC1(CO)CC1)c1ccc(Cl)cc1 [Example 2]

Structure (SMILES): [2H]C([2H])(O)C1(C([2H])([2H])O[C@]2(c3ccc(C#N)cc3)c3ccc(C(C)(C)O)cc3C(=O)N2Cc2ccc(Cl)cn2)CC1 [Example 48]
IC50 (SJSA-1 cells; SJSA-1, read-out: SJSA1 IC50 (μM) (Protocol B), SJSA-1, Protocol B): 0.56 µM

pIC50: −log10 of the molar value. Where two headings read alike, the source gives them in different places. One block for each compound: values may come before it.
